Patent US4338330A, “Benzimidazole derivatives, their use, and compositions containing these derivatives” (Continental Pharma, priority 1979, dated 1982)

Chains of the proteins cited; added tags and fusions are not shown.
UniProt Q8K4Z4, whole entry: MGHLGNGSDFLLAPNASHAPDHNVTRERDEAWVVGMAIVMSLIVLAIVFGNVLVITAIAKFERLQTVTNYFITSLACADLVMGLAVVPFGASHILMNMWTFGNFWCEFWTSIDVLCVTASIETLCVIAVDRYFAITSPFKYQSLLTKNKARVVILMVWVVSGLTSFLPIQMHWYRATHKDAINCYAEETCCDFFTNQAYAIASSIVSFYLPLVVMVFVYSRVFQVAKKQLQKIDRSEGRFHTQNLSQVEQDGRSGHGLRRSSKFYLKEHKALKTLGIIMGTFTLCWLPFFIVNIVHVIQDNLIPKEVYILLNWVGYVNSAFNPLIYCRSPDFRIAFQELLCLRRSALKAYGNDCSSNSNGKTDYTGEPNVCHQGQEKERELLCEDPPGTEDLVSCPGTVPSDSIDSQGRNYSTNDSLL

Molecular target: β2 receptors of the guinea pig trachea (Cavia porcellus, UniProt Q8K4Z4)
Test: Antagonist effect on relaxation of trachea by isoproterenol (pA2)

## CC(C)NCC(O)COc1ccc(CC(N)=O)cc1 (stereo not shown) [Atenolol, reference compound]
  Kb: 2290 nM
